According to US9012152B2, “Anti-bacterial peptides and methods of treating diseases using same” (Yissum Research Development Company of the Hebrew …, priority 2007, dated 2015):

Test system: E. Coli MC41relA^+
Experiment: EDF activity of modified derivatives (size and external Asn residues)
Format: cell-based
Details: various concentrations added to diluted cultures; incubated with rifampicin
Source text: FIGS. 14A-B are graphs illustrating that NNWNN (SEQ ID NO: 1) is the optimal molecule for EDF activity. FIG. 14A illustrates that each of the five amino acids is important for EDF activity. The five peptides analyzed include NNWNN (SEQ ID NO: 1); GNWNN (SEQ ID NO: 2); NGWNN (SEQ ID NO: 3); NNGNN (SEQ ID NO: 4); NNWGN (SEQ ID NO: 5); and NNWNG (SEQ ID NO: 6). The importance of size and external Asn residues for EDF activity is illustrated in FIG. 14B. Chemically synthesized EDF (SEQ ID NO: 1) or its modified derivatives were added at various concentrations to diluted cultures of E. Coli MC41relA^+. No EDF was added to a control culture. The modified derivatives that were added include NWN (SEQ ID NO: 7); NNNWNNN (SEQ ID NO: 8); QNWNN (SEQ ID NO: 9); NNWNQ (SEQ ID NO: 10); and GNWNG (SEQ ID NO: 11). Samples were incubated with rifampicin as described in Example 1.
E. coli mazEF-mediated cell death in the presence of synthesized wild type (WT) and mutated EDF. E. coli MC4100relA^+t(WT) and MC4100relA^+ΔmazEF (ΔmazEF) were grown for 12 hours in M9 medium with shaking (160 rpm). Then, cells were diluted 1:100 in M9 medium and were grown with shaking (160 rpm) at 37° C. to a mid-logarithmic phase (OD600=0.6). […] Cell killing was calculated by comparing the number of the colony-forming ability of cells treated by stressful conditions to those of the cells that were not exposed to the treatment.

NWN: tripeptide derivative of EDF (Chemically synthesized modified EDF derivative)
EDF activity: does not have EDF activity
